Assays:
[1] = Oral bioavailability of ibuprofen crushed tablets in control rats; format: in vivo; conditions: male, Sprague-Dawley, rat, plasma, 20 mg/kg
Protocol: (§1) The animal models are Adult male Sprague-Dawley rats with body weight of 250-300 g, and which were cared for in accordance with the principles and guidelines of the Canadian Council of Animal Care. All rats were catheterized in the right jugular vein for sample collection.
(§2) The tablets were crushed gently and small pieces were administered into the stomach via a plastic tube followed by 0.5 mL tap water. […] They had free access to water.

[2] = Oral bioavailability of ibuprofen formulations in vagal-suppressed (propantheline-treated, Pain Model) rats; format: in vivo; conditions: male, Sprague-Dawley, rat, plasma, 20 mg/kg
Protocol: as §1
An animal model having suppressed vagal properties were produced by administering (intraperitoneal injection) to the rats two 20 mg/kg doses of propantheline (test, n=6), an anticholinergic agent with known vagal suppressive properties, the first dose at 2 hours prior to administration of an NSAID, and the second at 1 hour prior.
as §2

AUC(0-t) ([1]; Control rats, oral 20 mg/kg ibuprofen as crushed tablets, read-out: AUC (0-1)): 48700 ng·h/mL
AUC(0-t) ([1]; control rats, before propantheline treatment effect, oral 20 mg/kg, read-out: AUC(0-1)): 48700 ng·h/mL
AUC(0-t) ([2]; propantheline treatment (vagal suppression), oral 20 mg/kg, read-out: AUC(0-1)): 12200 ng·h/mL
AUC(0-t) ([2]; vagal-suppressed (Pain Model) rats, oral 20 mg/kg ibuprofen as crushed tablets, read-out: AUC (0-1)): 12200 ng·h/mL
AUC(0-t) ([2]; vagal-suppressed (Pain Model) rats, oral 20 mg/kg ibuprofen as crushed tablets, read-out: AUC (0-8)): 81800 ng·h/mL
SMILES: CC(C)Cc1ccc(C(C)C(=O)O)cc1 (racemic) [ibuprofen, (±)-2-(4-Isobutylphenyl)propionic acid]

— patent US20050249808A1, “NSAIDs compositions containing tartaric acid” (priority 2001, published 2005)
